Reference: patent US10487147B2, “Anti-PD-L1 antibodies and uses thereof” (Merck Patent GmbH, priority 2011, dated 2019)

Experiments:
[1] = Fluorescence monitored thermal unfolding assay of wild type and mutant PD-L1 proteins; format: physicochemical; conditions: temperature midpoint of fluorescently monitored thermal denaturation of the PD-L1 antigen protein
Description: The results are summarized in the table below, where 48 point mutants of PD-L1 were compared to wild-type PD-L1 antigen for antibody binding. SPR (Biacore) was used to perform a kinetic study allowing determination of kinetic rate constants (ka and kd). Briefly, goat polyclonal anti-human Fc antibody was chemically coupled to a CM5 chip. […] Buffer was used to wash out unbound antibody until the baseline RU stabilized. Antigen (wild-type or mutant PD-L1) was next injected at a fixed concentration for 3 minutes and the association was recorded. Buffer was injected for a further 3 minutes and dissociation was observed. […] The rate constants were determined by iterative fitting of the data to a 1:1 binning model by an algorithm that minimizes Chi-squared. The equilibrium dissociation constant (KD) was calculated as the ratio of the kinetic constants and the change in the Gibbs free energy of binding of mutant relative to wild-type PD-L1 (ΔΔGmut) was derived from the ratio of the wild-type and mutant KDs. […] Mutants at Y56 bad such a low affinity that the KD could be accurately measured and the minimum KD is given instead. For D61A no binding could be found. […] The temperature midpoint of fluorescently monitored thermal denaturation is given for the wild type and mutant proteins. ND: Not Determined; BP: Biphasic. […]

[2] = Analytical size exclusion chromatography of wild type and mutant PD-L1 proteins; format: physicochemical; set-up: key: M: monodisperse and the same elution volume as wild type; M/T: peak at the same elution volume as wild type but with an additional tail; conditions: qualitative appearance of the PD-L1 antigen protein on size exclusion chromatography

PDL-1: wild-type PD-L1 antigen used for antibody binding
T1/2 [1]: 59.1 °C
SEC [2]: M
